Assays:
μ-opioid receptor [1] = biological target: T1, μ-opioid receptor (Homo sapiens (Human), UniProt P35372); experiment: μ-opioid receptor [35S]GTPγS functional assay, HEK-293 cells; details: for μ Emax (%): maximal effect relative to DAMGO, HEK-293 cells; for EC50: read-out: μ EC50, μ GTP EC50, membranes from HEK-293 cells
μ-opioid receptor [2] = biological target: T1, μ-opioid receptor; experiment: μ-opioid receptor [35S]GTPγS functional assay, U-2 OS cells; details: for μ Emax (%): maximal effect relative to DAMGO, U-2 OS cells; for EC50: read-out: μ EC50, μ GTP EC50, membranes from U-2 OS cells
κ-opioid receptor = κ-opioid receptor (Homo sapiens (Human), UniProt P41145); experiment: κ-opioid receptor [35S]GTPγS functional assay, U-2 OS cells; details: for κ Emax (%): maximal effect relative to U69,593, U-2 OS cells; for EC50: read-out: κ EC50, κ GTP EC50, membranes from U-2 OS cells

The chains behind the UniProt entries cited, without tags or fusion partners.
UniProt P35372, whole entry: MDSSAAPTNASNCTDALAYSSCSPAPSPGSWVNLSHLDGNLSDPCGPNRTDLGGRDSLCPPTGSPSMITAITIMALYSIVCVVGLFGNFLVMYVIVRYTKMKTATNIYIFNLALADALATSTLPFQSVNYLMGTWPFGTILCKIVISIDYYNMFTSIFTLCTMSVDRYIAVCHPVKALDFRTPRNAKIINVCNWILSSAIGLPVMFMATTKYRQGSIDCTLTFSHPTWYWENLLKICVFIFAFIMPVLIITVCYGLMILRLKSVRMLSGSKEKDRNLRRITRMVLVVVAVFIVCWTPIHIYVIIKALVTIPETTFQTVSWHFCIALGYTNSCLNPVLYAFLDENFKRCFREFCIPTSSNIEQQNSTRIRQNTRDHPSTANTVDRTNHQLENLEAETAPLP
UniProt P41145, whole entry: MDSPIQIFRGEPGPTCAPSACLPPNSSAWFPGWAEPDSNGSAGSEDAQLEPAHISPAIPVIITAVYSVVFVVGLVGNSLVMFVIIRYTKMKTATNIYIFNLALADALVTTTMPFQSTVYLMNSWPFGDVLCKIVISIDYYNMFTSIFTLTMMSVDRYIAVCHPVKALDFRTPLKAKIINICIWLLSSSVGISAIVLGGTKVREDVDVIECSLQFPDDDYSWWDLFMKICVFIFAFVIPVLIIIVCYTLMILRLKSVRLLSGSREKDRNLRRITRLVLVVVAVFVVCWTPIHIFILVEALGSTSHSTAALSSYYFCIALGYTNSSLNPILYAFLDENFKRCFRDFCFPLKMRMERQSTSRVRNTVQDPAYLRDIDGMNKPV

COc1ccc2c3c1O[C@H]1[C@@]4(OC)CC[C@@]5(C[C@]4(C)COCc4cc6ccccc6s4)[C@@H](C2)N(CC2CC2)CC[C@]315
μ Emax (%) (μ-opioid receptor [1]): 10.0 ± 0.58% | EC50 (μ-opioid receptor [1]): 14.6 nM

COc1ccc2c3c1OC1[C@@]4(OC)CC[C@@]5(C[C@]4(C)COCc4ccoc4)[C@@H](C2)N(CC2CC2)CC[C@]315 (stereo partly drawn)
μ Emax (%) (μ-opioid receptor [1]): 20.7 ± 0.33% | EC50 (μ-opioid receptor [1]): 15.1 nM

COC12CC[C@@]3(C[C@]1(C)COCc1ccccc1)[C@H]1Cc4ccc(O)c5c4[C@@]3(CCN1CC1CC1)[C@H]2O5
μ Emax (%) (μ-opioid receptor [2]): 89.7 ± 1.33% | EC50 (μ-opioid receptor [2]): 0.064 nM | κ Emax (%) (κ-opioid receptor): 103.0 ± 5.69% | EC50 (κ-opioid receptor): 0.047 nM | μ Emax (%) (μ-opioid receptor [1]): 31.3 ± 5.24%

CO[C@]12CC[C@@]3(C[C@]1(C)COCc1cc4ccccc4s1)[C@H]1Cc4ccc(O)c5c4[C@@]3(CCN1CC1CC1)C2O5 (stereo partly drawn)
μ Emax (%) (μ-opioid receptor [2]): 43.7 ± 1.67% | EC50 (μ-opioid receptor [2]): 0.14 nM | κ Emax (%) (κ-opioid receptor): 73.3 ± 3.67% | EC50 (κ-opioid receptor): 0.27 nM | μ Emax (%) (μ-opioid receptor [1]): 26.0 ± 3.51% | EC50 (μ-opioid receptor [1]): 13400 nM

COc1ccc2c3c1O[C@H]1C4(OC)CC[C@@]5(C[C@]4(C)COCc4ccccc4)[C@@H](C2)N(CC2CC2)CC[C@]315
μ Emax (%) (μ-opioid receptor [2]): 88.0 ± 1.29% | EC50 (μ-opioid receptor [2]): 8.81 nM | κ Emax (%) (κ-opioid receptor): 107.0 ± 0.58% | EC50 (κ-opioid receptor): 0.085 nM | μ Emax (%) (μ-opioid receptor [1]): 43.8 ± 4.40% | EC50 (μ-opioid receptor [1]): 57.7 nM

Source: patent US9988392B2, “7-beta-alkyl analogs of orvinols” (dated 2018)
